# Data published in PubChem BioAssay AID588591 (National Center for Advancing Translational Sciences (NCATS), 2011).
# Sequences of proteins named here, by UniProt entry; tags and fusion partners are left off. A change or cut given only in a name is not applied to a line headed by its entry.
# UniProt Q9Y253: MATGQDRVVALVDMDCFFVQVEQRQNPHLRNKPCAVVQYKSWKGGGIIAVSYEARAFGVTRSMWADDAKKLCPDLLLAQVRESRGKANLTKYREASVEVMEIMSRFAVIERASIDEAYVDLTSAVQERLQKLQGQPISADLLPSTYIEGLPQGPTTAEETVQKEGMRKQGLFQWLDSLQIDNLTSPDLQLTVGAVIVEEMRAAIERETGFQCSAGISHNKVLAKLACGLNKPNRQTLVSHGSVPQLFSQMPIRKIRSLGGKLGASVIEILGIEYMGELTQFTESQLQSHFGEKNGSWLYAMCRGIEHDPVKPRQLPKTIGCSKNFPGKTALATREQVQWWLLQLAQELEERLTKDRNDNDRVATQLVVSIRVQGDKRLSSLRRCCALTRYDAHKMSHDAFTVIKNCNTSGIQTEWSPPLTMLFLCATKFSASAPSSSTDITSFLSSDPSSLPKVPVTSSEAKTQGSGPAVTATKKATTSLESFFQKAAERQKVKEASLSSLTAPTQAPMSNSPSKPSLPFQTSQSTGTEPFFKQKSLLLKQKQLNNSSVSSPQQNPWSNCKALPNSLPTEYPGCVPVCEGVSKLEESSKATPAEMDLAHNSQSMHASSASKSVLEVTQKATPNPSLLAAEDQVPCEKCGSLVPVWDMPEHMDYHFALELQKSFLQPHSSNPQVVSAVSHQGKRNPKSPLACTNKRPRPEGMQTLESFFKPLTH
# Among all 390,000 compounds or so, about 4,700 (1.2%) were called active. The source calls these results inconclusive, neither active nor inactive. The call rests on the fitted dose curve; in most records, active means well fitted inhibition curve with a large enough effect; inconclusive means small, poorly fitted or top-dose-only effect, or another doubt; inactive means no such curve, though single readings can be large or run the other way.
# Target: DNA polymerase eta (Homo sapiens) (UniProt Q9Y253)
# Assay: qHTS for Inhibitors of Polymerase Eta
# Settings: recombinant Pol eta, fluorescent DNA replication assay
# Potency means the concentration at half of the fitted maximal effect.
row,SMILES,Potency
1,O=[N+]([O-])c1cc([N+](=O)[O-])c(-c2ccn[nH]2)s1,inconclusive: 79.4 µM
2,O=c1c2cc([N+](=O)[O-])ccc2[nH]c2c([N+](=O)[O-])cc([N+](=O)[O-])cc12,inconclusive: 14.1 µM
3,N#C/C(=C\c1ccc(N(CCBr)CCBr)cc1)C(N)=O,inconclusive: 28.2 µM
4,CN(C(=O)Cc1ccc(Cl)c(Cl)c1)[C@H]1CCCC[C@H]1N1CCCC1,inconclusive: 89.1 µM
5,Clc1ccc(Cl)c(NC2=NCC(CBr)S2)c1 (configuration not stated),inconclusive: 89.1 µM
6,O=[N+]([O-])c1cc([N+](=O)[O-])c(CCNc2ccccc2)c([N+](=O)[O-])c1,inconclusive: 79.4 µM
7,CCc1nc2c(n1)c1c(non1O)c1c2no[n+]1[O-],inconclusive: 20 µM
